Assays:
Bcl isoforms = assay: Binding affinity for the Bcl isoforms; conditions: Bcl-xL, Bcl-2, Bcl-w
[1] = tested on: senescent fibroblasts (SnCs), IMR90 cells; assay: Senolytic activity: killing senescent (irradiated) IMR90 fibroblasts, CellTiter-Glo; conditions: read-out: Best SnCs EC50; killing senescent (irradiated) fibroblasts in culture

binding affinities (Ki) for the Bcl isoforms, in words (Bcl isoforms): nanomole to picomole range
SMILES: Cc1c(S(C)(=O)=O)c(-c2cc(F)cc(N3CCN(c4ccc(NS(=O)(=O)c5ccc(N[C@H](CCN6CCC(C(=O)OCCCP(=O)(O)O)CC6)CSc6ccccc6)c(S(=O)(=O)C(F)(F)F)c5)cc4)CC3)c2)c(-c2ccc(Cl)cc2)n1C(C)C
EC50 [1]: 6 µM
